Values after ≈ are worked out from the molar mass of the structure shown.
Columns and labels:
[1] = system: P. aeruginosa strain ATCC 27853; assay type: cell-based
From the text: Table I, which follows, indicates the Minimal Inhibitory Concentration (MIC) in […] of various peptides against S.aureus strain ATCC 25923(S), P. aeruginosa strain ATCC 27853(P), E. coli ATCC strain 25922(E), and C. 4albicans (CA). […] The peptides are unsubstituted at the N-terminal; substituted with an acetyl group at the N-terminal, as indicated by Ac-; substituted with an octanoyl group at the N-terminal, as indicated by Oct-; substituted with spinogosine, as indicated by Sph-; substituted with a succinyl group, as indicated by Suc-; substituted with a hexanoyl group, as indicated by Hex-; substituted with a heptanoyl group, as indicated by Hep-; substituted with a valeryl group, as indicated by Val-; substituted with a myristryl group, as indicated by Myr-; or substituted with an ibuprofyl group, as indicated by Ibu-; […]
The stock peptide solution was diluted in serial dilutions (1:2) down the wells of a microtiter plate so that the final concentrations of peptides in the wells were 0.25, 0.50, 1, 2, 4, 8, 16, 32, 64, 128 and 256 μg/ml. […] The plates were incubated for 16-20 hours at 37° C., and the minimal inhibitory concentration (MIC) for each peptide was determined. […]
The in vitro anti-microbial activities of the methane sulfonate derivatives were determined according to the methods described in Examples 1 and 2. […]

[2] = MTD and LD50, single intraperitoneal administration; assay type: in vivo, mice; details: for No. of Survivors Day 1 / No. of Survivors Day 2 / No. of Survivors Day 3 / No. of Survivors Day 4 / No. of Survivors Day 5 / No. of Survivors Day 6 / No. of Survivors Day 7 / No. of Survivors Day 8 / No. of Survivors Day 11: 4 injected
Procedure: Determinations of a maximal tolerated dose (MTD) of a single intravenous (i.v.) administration or intraperitoneal (i.p.) administration of MSI-344 or MSI-1857 in 100 CD-1®BR mice were done. The MTD of a single intravenous (i.v.) administration was 10 mg/kg for MSI-344 and 60 mg/kg for MSI-1857. The MTD of a single intraperitoneal (i.p.) administration was less than 20 mg/kg for MSI-344 and between 50 and 100 mg/kg for MSI-1857.
To determine estimates of MTDs and LD50s of MSI-344 and MSI-1857 administered intravenously or intraperitoneally as a single bolus in mice.
A 5 mg/mL solution of MSI-344 was made in saline (0.9% sodium chloride injection USP, Abbott, North Chicago, Ill.) corrected for peptide content. Solutions of MSI-344 at concentrations of 4, 3, 2, 1.5, 1, and 0.5 mg/mL were made by diluting the 5 mg/mL solution using saline as diluent. (Errors were made in solution preparation of the 4, 3, and 2 mg/mL solutions and results from groups with animals doses with these solutions, i.e. groups 12, 13, and 14, were eliminated from study analysis). A 20 mg/mL solution of MSI-1857 was made in saline. Solutions of MSI-1857 at concentrations of 15, 10, 8, 6, and 5 mg/mL were made by diluting the 20 mg/mL solution using saline as diluent.
Another 5 mg/mL solution of MSI-344 was made in saline corrected for peptide content. Solutions of 4, 3 and 2 mg/mL were made by diluting the 5 mg/mL solution using saline as diluent. A 15 mg/mL solution of MSI-1857 in saline was made corrected for peptide content. A 10 mg/mL solution was made by diluting the 15 mg/mL solution with saline.
Mice (four mice per dose group) were intravenously or intraperitoneally administered a single bolus of MSI-344 or MSI-1857 using an injection volume of 10 mL/kg of the appropriate solution concentration. If the first two mice in a group died immediately (within 10 secs) after administration of a dose then no other mice injected with this dose of this compound (for ethical reasons). Survival was monitored daily for at least eight days post-administration. Study designs are presented in Tables IX and X. Toxicity Study # 262 was a supplement to Toxicity Study #261.

[3] = Tox Study 262 group 6, 150 mg/kg IP
[4] = Tox Study 262 group 7, 100 mg/kg IP
[5] = Tox Study #261 group 15, 200 mg/kg IP
[6] = Tox Study #261 group 16, 150 mg/kg IP
[7] = Tox Study #261 group 17, 100 mg/kg IP
[8] = Tox Study #261 group 18, 50 mg/kg IP

For `CC[C@H](C)[C@H](NC(=O)CNCS(=O)(=O)O)C(=O)NCC(=O)N[C@@H](CCCCNCS(=O)(=O)O)C(=O)N[C@@H](Cc1ccccc1)C(=O)N[C@@H](CC(C)C)C(=O)N[C@@H](CCCCNCS(=O)(=O)O)C(=O)N[C@@H](CCCCNCS(=O)(=O)O)C(=O)N[C@@H](C)C(=O)N[C@@H](CCCCNCS(=O)(=O)O)C(=O)N[C@@H](CCCCNCS(=O)(=O)O)C(=O)N[C@@H](Cc1ccccc1)C(=O)NCC(=O)N[C@@H](CCCCNCS(=O)(=O)O)C(=O)N[C@@H](C)C(=O)N[C@@H](Cc1ccccc1)C(=O)N[C@H](C(=O)N[C@@H](CCCCNCS(=O)(=O)O)C(=O)N[C@H](C(=O)N[C@@H](CC(C)C)C(=O)N[C@@H](CCCCNCS(=O)(=O)O)C(=O)N[C@@H](CCCCNCS(=O)(=O)O)C(=O)O)[C@@H](C)CC)C(C)C` [MSI-1857], which “MIC P. aeruginosa ATCC 27853” value [1] is on record?
The value was 256 µg/mL (≈ 74.9 µM).

And the “No. of Survivors Day 1” value [2, 3]?
Its value is 1.

What about the “No. of Survivors Day 2” value [2, 3] of the same compound?
The value was 1.

What about the “No. of Survivors Day 3” value [2, 3] of the same compound?
Its value is 1.

What about the “No. of Survivors Day 4” value [2, 3] of the same compound?
The value was 1.

And the “No. of Survivors Day 5” value [2, 3]?
The value was 1.

And the “No. of Survivors Day 6” value [2, 3]?
Its value is 1.

What about the “No. of Survivors Day 7” value [2, 3] of the same compound?
The value was 1.

What about the “No. of Survivors Day 8” value [2, 3] of the same compound?
Its value is 1.

And the “No. of Survivors Day 11” value [2, 3]?
The value was 1.

And the “No. of Survivors Day 1” value [2, 4]?
The value was 4.

And the “No. of Survivors Day 2” value [2, 4]?
Its value is 4.

And the “No. of Survivors Day 3” value [2, 4]?
Its value is 4.

What about the “No. of Survivors Day 4” value [2, 4] of the same compound?
The value was 4.

What about the “No. of Survivors Day 5” value [2, 4] of the same compound?
The value was 4.

What about the “No. of Survivors Day 6” value [2, 4] of the same compound?
The value was 4.

What about the “No. of Survivors Day 7” value [2, 4] of the same compound?
Its value is 4.

What about the “No. of Survivors Day 8” value [2, 4] of the same compound?
The value was 4.

And the “No. of Survivors Day 11” value [2, 4]?
The value was 4.

What about the “No. of Survivors Day 1” value [2, 5] of the same compound?
The value was 0.

What about the “No. of Survivors Day 2” value [2, 5] of the same compound?
Its value is 0.

And the “No. of Survivors Day 3” value [2, 5]?
The value was 0.

And the “No. of Survivors Day 4” value [2, 5]?
Its value is 0.

And the “No. of Survivors Day 5” value [2, 5]?
The value was 0.

And the “No. of Survivors Day 6” value [2, 5]?
The value was 0.

What about the “No. of Survivors Day 7” value [2, 5] of the same compound?
Its value is 0.

What about the “No. of Survivors Day 8” value [2, 5] of the same compound?
The value was 0.

And the “No. of Survivors Day 1” value [2, 6]?
Its value is 1.

What about the “No. of Survivors Day 2” value [2, 6] of the same compound?
The value was 1.

And the “No. of Survivors Day 3” value [2, 6]?
Its value is 1.

What about the “No. of Survivors Day 4” value [2, 6] of the same compound?
Its value is 1.

What about the “No. of Survivors Day 5” value [2, 6] of the same compound?
The value was 1.

What about the “No. of Survivors Day 6” value [2, 6] of the same compound?
Its value is 1.

What about the “No. of Survivors Day 7” value [2, 6] of the same compound?
The value was 1.

What about the “No. of Survivors Day 8” value [2, 6] of the same compound?
The value was 1.

What about the “No. of Survivors Day 1” value [2, 7] of the same compound?
The value was 4.

And the “No. of Survivors Day 2” value [2, 7]?
The value was 3.

What about the “No. of Survivors Day 3” value [2, 7] of the same compound?
The value was 3.

And the “No. of Survivors Day 4” value [2, 7]?
The value was 3.

What about the “No. of Survivors Day 5” value [2, 7] of the same compound?
The value was 3.

And the “No. of Survivors Day 6” value [2, 7]?
Its value is 3.

What about the “No. of Survivors Day 7” value [2, 7] of the same compound?
The value was 3.

And the “No. of Survivors Day 8” value [2, 7]?
Its value is 3.

What about the “No. of Survivors Day 1” value [2, 8] of the same compound?
The value was 4.

And the “No. of Survivors Day 2” value [2, 8]?
Its value is 4.

What about the “No. of Survivors Day 3” value [2, 8] of the same compound?
The value was 4.

What about the “No. of Survivors Day 4” value [2, 8] of the same compound?
The value was 4.

And the “No. of Survivors Day 5” value [2, 8]?
Its value is 4.

And the “No. of Survivors Day 6” value [2, 8]?
The value was 4.

And the “No. of Survivors Day 7” value [2, 8]?
The value was 4.

What about the “No. of Survivors Day 8” value [2, 8] of the same compound?
Its value is 4.

What about the LD50 ([2]; mouse, in vivo, ip, CD-1 mice, estimated from dose response curves) of the same compound?
The LD50 was 120 mg/kg.

And the MTD ([2]; mouse, in vivo, ip, CD-1 mice, read-out: MTD of a single intraperitoneal (i.p.) administration)?
Its MTD is 50 to 100 mg/kg.

From patent US6348445B1, “Biologically active peptides with reduced toxicity in animals and a method for preparing same” (priority 1992, dated 2002)
